The assay concerns human platelets. The assay can be described thus: Inhibition of platelet aggregation in vitro. The class given is cell-based. The protocol:
Platelet rich plasma (PRP) is prepared by centrifugation of citrated blood at 200 g for 20 minutes. […] Collagen (1.0 μg/mL) is used as platelet activator in PRP. The inhibitory activity of the compounds is tested by addition of drug to PRP 10 or 30 min before addition of the stimulus.
The antiaggregatory activity of the compounds of the invention is evaluated as % inhibition of platelet aggregation compared to control samples.

As a reminder, the IC50 is the concentration that inhibits the measured activity by half.

Molecules are shown by their SMILES. Where two headings read alike, the source gives them in different places.

As to `CC(=O)Oc1ccccc1C(=O)O` [Aspirin], the IC50 runs as follows: (read-out: Platelet Aggregation IC50 (collagen 95%) 10 min) 59 µM; (read-out: Platelet Aggregation IC50 (collagen 95%) 30 min) 21 µM.
